Molecular target: human plasmin (human) (UniProt P00747)
Test: cell-based or functional assay

prolongation of euglobulin clot lysis time, 20 nM aprotinin: 9 h | prolongation of euglobulin clot lysis time, 100 nM aprotinin: > 16 h
Substance: aprotinin (from UniProt P00974 36-93)

— patent US20140142040A1
